This assay has as its target trypsin-activated recombinant human renin (Homo sapiens, UniProt P00797). Nature of the assay: Renin fluorescence assay (internally quenched peptide substrate). The class given is biochemical. The following applies: compounds I*. On the procedure: The sequence of this peptide corresponds to the sequence of human angiotensinogen. The following test protocol can be used. All reactions are carried out in a flat bottom white opaque microtiter plate. A 4 μL aliquot of 400 μM renin substrate (DABCYL-γ-[…]) in 192 μL assay buffer (50 mM BES, 150 mM NaCl, 0.25 mg/mL bovine serum albumin, pH7.0) is added to 4 μL of test compound in DMSO at various concentrations ranging from 10 μM to 1 nM final concentrations. Next, 100 μL of trypsin-activated recombinant human renin (final enzyme concentration of 0.2-2 nM) in assay buffer is added, and the solution is mixed by pipetting. The increase in fluorescence at 495 nm (excitation at 340 nm) is measured for 60-360 minutes at rt using a Perkin-Elmer Fusion microplate reader. The slope of a linear portion of the plot of fluorescence-increase as a function of time is then determined, and the rate is used for calculating percent inhibition in relation to uninhibited control. […] The IC50 is defined as the concentration of a particular inhibitor that reduces the formation of product by 50% relative to a control sample containing no inhibitor. […] (Wang G. T. et al. Anal. Biochem. 1993, 210, 351; Nakamura, N. et al. J. Biochem. (Tokyo) 1991, 109, 741; Murakami, K. et al. Anal Biochem. 1981, 110, 232).

The chains behind the UniProt entries cited, without tags or fusion partners. Residues count along the entry.
UniProt P00797, 67-406 limits assumed: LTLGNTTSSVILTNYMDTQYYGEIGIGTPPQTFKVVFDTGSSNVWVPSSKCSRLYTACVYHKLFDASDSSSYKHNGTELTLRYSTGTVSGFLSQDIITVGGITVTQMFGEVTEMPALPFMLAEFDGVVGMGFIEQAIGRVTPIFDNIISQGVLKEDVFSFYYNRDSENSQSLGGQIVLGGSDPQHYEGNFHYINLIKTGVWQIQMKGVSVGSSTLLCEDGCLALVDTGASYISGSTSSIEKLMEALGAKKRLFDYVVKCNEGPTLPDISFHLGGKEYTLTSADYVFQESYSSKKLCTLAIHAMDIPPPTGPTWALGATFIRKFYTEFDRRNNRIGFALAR

Where only a bound is given, the exact number is not on record here.

With `CNC[C@H](CC1CCCCC1)NC(=O)N1CCO[C@@H]([C@@H](OCCNC(=O)OC)c2cccc(Cl)c2)C1`, the IC50 (as a rule, the concentration that gives 50% inhibition) is less than 10 nM. As for `CNC[C@H](CC1CCCCC1)NC(=O)N1CCC[C@@H]([C@@H](OCCNC(=NC#N)NC)c2cccc(Cl)c2)C1`, the IC50 is greater than 50 nM.
